Laboratory results: patent US11377466B2, “Analogs of the natural product icariin” (Whitehead Institute for Biomedical Research, priority 2018, dated 2022)
Several values for one entry are separate records, joined by “and”; a condition that tells them apart may be missing. Equal values may be shown once.

Assays:
[1] = target: purified recombinant human PDE5 (Homo sapiens, UniProt O76074); test: In vitro PDE5 inhibition assay (GMP production from cGMP, LC-MS); format: biochemical; details: for Field improved potency: fold change in IC50 compared to icariin
SY5Y cells = test: Cytotoxicity measured by resazurin, SY5Y; details: read-out: IC50 Values (μM), SY5Y, 0-10 μM
H187 cells = test: Cytotoxicity measured by resazurin, H187; format: cell-based, human; details: read-out: IC50 Values (μM), H187, 0-10 μM

Row | SMILES | Ki ([1]; enzyme kinetics, purified recombinant human PDE5) [nM] | Field improved potency [1] | fold decrease in potency compared to the unglycosylated 7 ([1]; 7-O-glucose combined with 3-O-hydroxypropyl) | IC50 ([1]; purified recombinant human PDE5, cGMP at 1/10 of Km) [nM] | IC50 (SY5Y cells) [µM] | IC50 (H187 cells) [µM]
1 | COc1ccc(-c2oc3c(CC=C(C)C)c(O)cc(O)c3c(=O)c2OCCCO)cc1 | 38 | 42 and 43 | – | – | – | –
2 | COc1ccc(-c2oc3c(CC=C(C)C)c(O[C@@H]4O[C@H](CO)[C@@H](O)[C@H](O)[C@H]4O)cc(O)c3c(=O)c2OCCCO)cc1 | – | 8 | 6 | 800 | 5.02 | > 10
